Laboratory results as given in US10793528B2 (priority 2016, dated 2020).

Amino acid sequences for entries named in this document (tags omitted). A change or cut given only in a name is not applied to a line headed by its entry.
UniProt P41146: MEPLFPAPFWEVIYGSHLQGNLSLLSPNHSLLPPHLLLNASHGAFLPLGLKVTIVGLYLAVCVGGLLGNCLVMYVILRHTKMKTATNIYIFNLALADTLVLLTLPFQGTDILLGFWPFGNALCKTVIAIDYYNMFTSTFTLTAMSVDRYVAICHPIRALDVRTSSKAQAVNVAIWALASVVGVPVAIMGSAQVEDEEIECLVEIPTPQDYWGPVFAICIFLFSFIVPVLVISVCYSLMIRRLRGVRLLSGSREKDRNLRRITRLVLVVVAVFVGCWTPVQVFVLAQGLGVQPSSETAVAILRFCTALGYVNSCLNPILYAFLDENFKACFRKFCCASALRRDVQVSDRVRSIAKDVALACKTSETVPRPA
UniProt P35372, whole entry, looked up: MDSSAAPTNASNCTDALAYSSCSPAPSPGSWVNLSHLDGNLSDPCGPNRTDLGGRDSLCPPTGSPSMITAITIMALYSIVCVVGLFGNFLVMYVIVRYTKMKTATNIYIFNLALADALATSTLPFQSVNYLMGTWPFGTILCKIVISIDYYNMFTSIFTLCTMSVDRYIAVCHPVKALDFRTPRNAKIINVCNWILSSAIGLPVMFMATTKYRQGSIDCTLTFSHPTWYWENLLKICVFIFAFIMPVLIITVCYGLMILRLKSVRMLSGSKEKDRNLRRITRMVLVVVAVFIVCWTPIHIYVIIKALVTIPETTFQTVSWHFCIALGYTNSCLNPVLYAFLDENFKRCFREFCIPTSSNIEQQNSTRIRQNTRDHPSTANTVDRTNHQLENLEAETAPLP

Tests used:
[1] = molecular target: human nociceptin/orphanin FQ peptide receptor (hNOP) (Homo sapiens (Human), UniProt P41146); assay: hNOP receptor binding assay (SPA, [3H]nociceptin); details: read-out: hNOP Ki
[2] = molecular target: human mu-opioid receptor (hMOP) (Homo sapiens (Human), UniProt P35372); assay: hMOP receptor binding assay (SPA, [3H]naloxone); details: read-out: hMOP Ki

Row | Structure (SMILES) | Ki [1] [nM] | Ki [2] [nM]
1 | CN(C)C1(c2ccccc2)CCC2(CC1)CN(CCC(=O)N1CC[C@H](O)[C@H](O)C1)C(=O)N2CC1CCC1 (relative stereo) | 6.6 | 33
2 | CN(C)C1(c2ccccc2)CCC2(CC1)CN(CCC(=O)N1C[C@@H](O)[C@@H](O)C1)C(=O)N2CC1CCC1 (relative stereo) | 10.6 | 24.5
